Publication PMC9811660 (2022)

Sequences of proteins named here, by UniProt entry; tags and fusion partners are left off. A change or cut given only in a name is not applied to a line headed by its entry.
UniProt P63045: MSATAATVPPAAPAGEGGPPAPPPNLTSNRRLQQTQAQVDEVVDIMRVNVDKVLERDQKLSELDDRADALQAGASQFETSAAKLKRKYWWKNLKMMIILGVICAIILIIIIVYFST

Molecular target: SNARE complex bearing five mutations in SNAP-25 (K40A/D51A/E52A/E55A/D166A) (rat, UniProt P63045 28-89; P32851 191-256; P60881 7-83; P60881 140-204, K40A | D51A | E52A | E55A | D166A)
Experiment: ITC

## RKAKYAKMEAEREVMRQGIRDKYGIK (domain or fragment) [Complexin-1 fragment spanning residues 48-73]
  Kd: 75.8 nM
